The source of these data is patent US9669035B2, “Combinations comprising PDE 2 inhibitors such as 1-aryl-4-methyl-[1,2,4]triazolo-[4,3-A]]quinoxaline compounds and PDE 10 inhibitors for use in the treatment of neurological of metabolic disorders” (Janssen Pharmaceutica NV, priority 2012, dated 2017).

The ED50 is the dose at which the effect has come halfway, by size or by number of responders.

Several values for one entry are separate records, joined by “and”; a condition that tells them apart may be missing. Identical values can stand only once. Counter-ions that a name gives are not always drawn.

The test system of experiment [1] is cGMP levels in the rat brain. The conditions noted are these: in vivo, hydrochloride.
For experiment [2], the system named is d-Amphetamine-induced hyperlocomotion in rats. Nature of the experiment: d-Amphetamine-induced hyperlocomotion in rats: potentiation of the effect of MP-10. The experiment is classed as in vivo. Particulars: Rattus norvegicus, sc, 1 h, read-out: ED50 for activity levels <2500 cm (potentiation of MP-10). Here is the method:
At a predefined time interval before measuring motor activity, the rats were pretreated with test compound or solvent (10 ml/kg, p.o. or s.c.) and placed in individual cages. Thirty min before starting the locomotor activity test, the rats were challenged with d-amphetamine (1.25 mg/kg, s.c.) in combination with MP-10 (2.5 mg/kg, s.c.), both given as a single injection (10 ml/kg, s.c.). Motor activity was measured over a period of 30 min in microprocessor-based motor activity arenas (closed gray PVC cylinders with a height of 39 cm and a diameter of 31 cm) and analyzed using the Noldus Ethovision XT Video Tracking System (Version 7.0.418; Noldus, Wageningen, The Netherlands). The total distance traveled (cm) was calculated. A total distance traveled <2500 cm was adopted as all-or-none criterion for potentiation of the effect of MP-10 (6.3% false positives in a control population of 412 solvent-pretreated rats).

For the molecule `CCCCOc1cncc(-c2nnc3c(C)nc4ccc(CN5CCOCC5)cc4n23)c1` [Compound B-1a, 1-(5-Butoxypyridin-3-yl)-4-methyl-8-(morpholin-4-ylmethyl) [1,2,4]triazolo[4,3-a]quinoxaline hydrochloride], the “mean nmol cGMP/ml” value in experiment [1] is 11.6 nmol cGMP/ml and 16.0 nmol cGMP/ml. The ED50 at 2.5 mg/kg in experiment [2] was 0.51 mg/kg.
